Patent US5795859A (priority 1991, dated 1998)

System: Meth A ascites tumour-bearing mice
Assay: LPS lethality in Meth A ascites tumour-bearing mice
Type: in vivo
Conditions: 500 μg E.coli LPS, peptide s.c.; survival up to 64 hours; * heightened activity
Experimental: The number of surviving animals was then observed at 18 hours and 24 hours post TN? treatment. In experiments which assessed the effects of 1-related peptides on LPS lethality the mice were administered 500 μg E.coli LPS and peptide or other treatment in a similar manner. In LPS experiments polymyxin B, an LPS inhibitor, replaced MAb 47 as a positive control. The number of animals surviving was assessed at intervals up to 64 hours after LPS challenge.

For “ARG THR PRO SER ASP LYS VAL PRO ALA HIS VAL VAL ALA (RTPSDKVPAHVVA; printed: ARG THR PRO SER ASP LYS VAL PRO ALA HIS VAL VAL ALA) [Peptide 2]”, the “IN VIVO LPS TOXICITY METH A” value was “+ (10 animals per group scored positive if 7 or more survive)”.
